Assay results taken from patent publication US10987336B2, “Method of preventing or treating side effect of tumor therapy” (priority 2018, dated 2021).

System: HUVEC cells
Assay: CCK-8 cell survival: ameliorating proliferative toxicity of VEGF/VEGFR inhibitor (Examples 4-15)
Assay type: cell-based
Conditions: agent 100 μM, 24-48 h

O=[N+]([O-])OCC(CO[N+](=O)[O-])(CO[N+](=O)[O-])CO[N+](=O)[O-]
Cell Survival Rate (viable cells increased vs VEGF/VEGFR inhibitor group) (Regorafenib 10 μM): Increased by 20-25%
Cell Survival Rate (viable cells increased vs VEGF/VEGFR inhibitor group) (Sorafenib 5 μM): Increased by 30-40%
Cell Survival Rate (viable cells increased vs VEGF/VEGFR inhibitor group) (Sunitinib 5 μM): Increased by 25-35%

This is a selection: effects in other tests are not listed, and their absence says nothing.
